Target: Sodium-dependent serotonin transporter (Rattus norvegicus, UniProt P31652)
Test: Tested for the binding affinity towards Serotonin transporter in rat midbrain tissue by displacing [3H]paroxetine radioligand
Assay type: tissue-based
How it was run: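 Competition binding with 0.2 nM [³H]paroxetine as final radioligand concentration.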

Sequences of proteins named here, by UniProt entry; tags and fusion partners are left off.
UniProt P31652, whole entry: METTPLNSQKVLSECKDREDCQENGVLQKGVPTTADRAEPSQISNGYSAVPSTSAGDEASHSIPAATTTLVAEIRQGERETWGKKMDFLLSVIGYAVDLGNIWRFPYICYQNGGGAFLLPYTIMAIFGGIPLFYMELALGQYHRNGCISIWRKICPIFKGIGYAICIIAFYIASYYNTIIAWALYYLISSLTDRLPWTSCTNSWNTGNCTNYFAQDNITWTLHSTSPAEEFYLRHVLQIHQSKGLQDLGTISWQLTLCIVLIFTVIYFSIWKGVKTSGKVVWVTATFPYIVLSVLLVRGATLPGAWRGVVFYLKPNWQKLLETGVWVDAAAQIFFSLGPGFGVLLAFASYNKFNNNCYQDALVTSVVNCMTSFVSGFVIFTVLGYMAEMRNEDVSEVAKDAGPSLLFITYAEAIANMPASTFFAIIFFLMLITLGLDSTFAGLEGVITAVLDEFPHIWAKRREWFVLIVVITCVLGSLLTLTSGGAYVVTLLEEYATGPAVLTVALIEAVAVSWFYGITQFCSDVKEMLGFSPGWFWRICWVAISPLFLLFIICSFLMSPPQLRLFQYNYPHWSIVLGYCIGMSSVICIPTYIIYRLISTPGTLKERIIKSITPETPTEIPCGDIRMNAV

## COC(=O)[C@@H]1C2CC[C@H](C[C@@H]1c1ccccc1)N2C
  Ki: 0.178 µM
